Conditions: pH 5.0

For `COc1cc(OC)nc(NC(=O)NS(=O)(=O)c2ncccc2C(=O)N(C)C)n1`, the logD was -0.36.

From the SangsterLogP compilation
